Marks after values point to notes of the source that are not given here.

The subject of the data set is BV2 microglial cells.

Consider “N-(1H-benzo[d]imidazol-2-yl)nicotinamide [Compound 17]”, for which the Viability is reported as 1000^d μM.

(Values after publication PMC4697443 (Bioorganic & medicinal chemistry, 2015).)
